Values quoted from earlier work, collected in publication PMC5177531 (ACS chemical neuroscience, 2016).

Tested on: MOR-1 variants (Oprm1)
Settings: mouse, in vivo; cited from earlier work

CCC(=O)C(CC(C)N(C)C)(c1ccccc1)c1ccccc1 (centres unmarked) [Methadone]
MOR-1 Variants required for analgesia: 7TM

CN1CC[C@]23c4c5ccc(O)c4O[C@H]2[C@@H](O)C=C[C@H]3[C@H]1C5 [Morphine]
MOR-1 Variants required for analgesia: 7TM
